IC50 data for one molecule are collected here from ChEMBL document CHEMBL5726467, “2-(pyridin-3-yl)-pyrimidine derivatives as RET inhibitors” (2019).

Protein sequences, listed by entry. Tags and fused reporters are not part of them. Residues count along the entry.
UniProt P07949, 29-1114 V804L limits assumed: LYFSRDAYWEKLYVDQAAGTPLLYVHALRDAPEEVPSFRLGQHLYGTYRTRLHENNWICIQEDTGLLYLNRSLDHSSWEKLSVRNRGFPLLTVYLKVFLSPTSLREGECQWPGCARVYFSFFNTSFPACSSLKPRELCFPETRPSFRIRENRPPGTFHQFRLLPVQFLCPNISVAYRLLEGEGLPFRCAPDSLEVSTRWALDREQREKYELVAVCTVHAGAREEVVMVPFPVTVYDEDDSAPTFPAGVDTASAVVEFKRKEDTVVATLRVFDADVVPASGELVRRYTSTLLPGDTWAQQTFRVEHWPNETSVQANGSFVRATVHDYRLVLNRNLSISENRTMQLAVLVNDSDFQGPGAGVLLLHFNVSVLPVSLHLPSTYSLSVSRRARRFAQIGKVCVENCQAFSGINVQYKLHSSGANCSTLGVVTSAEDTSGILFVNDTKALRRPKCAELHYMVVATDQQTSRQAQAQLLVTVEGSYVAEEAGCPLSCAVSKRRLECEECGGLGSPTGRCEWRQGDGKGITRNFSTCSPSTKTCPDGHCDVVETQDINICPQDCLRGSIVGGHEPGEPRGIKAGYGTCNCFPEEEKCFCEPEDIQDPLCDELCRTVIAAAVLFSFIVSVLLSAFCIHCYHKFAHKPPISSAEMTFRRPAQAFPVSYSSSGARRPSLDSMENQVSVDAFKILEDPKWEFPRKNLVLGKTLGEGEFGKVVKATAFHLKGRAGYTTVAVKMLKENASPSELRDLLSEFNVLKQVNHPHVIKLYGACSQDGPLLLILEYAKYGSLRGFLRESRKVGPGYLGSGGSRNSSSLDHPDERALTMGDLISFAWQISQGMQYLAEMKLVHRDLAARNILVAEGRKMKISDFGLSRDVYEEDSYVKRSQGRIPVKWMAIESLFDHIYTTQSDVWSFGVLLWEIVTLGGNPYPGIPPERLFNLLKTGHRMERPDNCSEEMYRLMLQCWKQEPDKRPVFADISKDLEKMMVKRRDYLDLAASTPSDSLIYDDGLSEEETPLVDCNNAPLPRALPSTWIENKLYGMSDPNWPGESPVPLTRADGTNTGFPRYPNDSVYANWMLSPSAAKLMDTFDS

For the assay, the target named is Proto-oncogene tyrosine-protein kinase receptor Ret (Homo sapiens, UniProt P07949, V804L). It counts as organism-based.

With `Cc1cc(Nc2cc(C)[nH]n2)nc(-c2ccc(C(=O)NCc3ccc(OC(F)(F)F)cc3)nc2)n1`, the IC50 (as a rule, the concentration that inhibits the measured activity by half) is over 100 nM.
